Reference: patent publication US8895549B2, “Aminoalcohol substituted 2,3-dihydroimidazo[1,2-c]quinazoline derivatives useful for treating hyper-proliferative disorders and diseases associated with angiogenesis” (Bayer Intellectual Property GmbH, priority 2010, dated 2014)

Amino acid sequences for entries named in this document (tags omitted). A change or cut given only in a name is not applied to a line headed by its entry.
UniProt P42338: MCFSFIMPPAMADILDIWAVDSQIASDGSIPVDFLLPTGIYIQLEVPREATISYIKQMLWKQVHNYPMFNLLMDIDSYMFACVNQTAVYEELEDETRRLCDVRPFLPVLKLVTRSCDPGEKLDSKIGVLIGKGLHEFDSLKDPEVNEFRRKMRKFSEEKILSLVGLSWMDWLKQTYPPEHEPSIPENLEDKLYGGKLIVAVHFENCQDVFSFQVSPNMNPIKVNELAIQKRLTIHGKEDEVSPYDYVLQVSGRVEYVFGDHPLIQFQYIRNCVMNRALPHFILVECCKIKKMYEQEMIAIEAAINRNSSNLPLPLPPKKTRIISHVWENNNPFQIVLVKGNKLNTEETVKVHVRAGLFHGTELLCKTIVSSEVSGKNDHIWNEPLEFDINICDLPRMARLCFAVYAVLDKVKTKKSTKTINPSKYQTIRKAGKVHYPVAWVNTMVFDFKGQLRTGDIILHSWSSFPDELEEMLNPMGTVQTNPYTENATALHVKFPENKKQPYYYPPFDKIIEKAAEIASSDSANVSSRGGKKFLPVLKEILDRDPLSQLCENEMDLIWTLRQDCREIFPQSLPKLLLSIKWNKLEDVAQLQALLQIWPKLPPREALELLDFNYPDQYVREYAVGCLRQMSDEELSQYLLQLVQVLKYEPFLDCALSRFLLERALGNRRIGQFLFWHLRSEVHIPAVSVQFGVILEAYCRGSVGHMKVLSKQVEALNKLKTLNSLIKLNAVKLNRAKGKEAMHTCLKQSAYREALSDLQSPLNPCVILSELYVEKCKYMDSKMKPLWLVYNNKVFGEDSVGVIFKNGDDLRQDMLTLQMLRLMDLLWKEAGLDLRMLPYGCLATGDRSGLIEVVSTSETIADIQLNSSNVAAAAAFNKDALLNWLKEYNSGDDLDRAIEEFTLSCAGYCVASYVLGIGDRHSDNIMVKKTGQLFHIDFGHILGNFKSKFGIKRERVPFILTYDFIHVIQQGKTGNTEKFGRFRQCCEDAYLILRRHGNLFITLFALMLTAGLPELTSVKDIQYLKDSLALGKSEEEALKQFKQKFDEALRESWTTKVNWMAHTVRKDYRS

molecular target: PI3Kβ (complex of human p110β and human p85α) (Homo sapiens (Human), UniProt P42338); assay: PI3Kβ kinase assay (HTRF-based PI3K inhibition assay); conditions: 10 μM ATP, 10 μM PIP2, 20 min at 22° C.; read-out: average IC50 in the PI3K beta biochemical assay
From the text: Determination of % Inhibition and IC50 Values of Compounds in PI3Kα Kinase Assay
PI3Kα inhibitory activity of compounds of the present invention was quantified employing the HTRF based PI3K inhibition assay as described below.
As reagents for the kinase reaction itself and the quantification of the reaction product, the PI3-Kinase HTRF Assay kit from Millipore (#33-017) was used. With this kit the phosphatidylinositol 3,4,5-trisphosphate (PIP3) generated in the kinase reaction is detected by displacement of a biotinylated ligand from an energy transfer complex consisting of a Europium-labeled anti-GST monoclonal antibody, a GST-tagged PH domain, biotinylated PIP3 and Streptavidin-Allophycocyanin (APC). As kinase a complex of N-terminal His6-tagged recombinant full-length human p110β and untagged, recombinant, full length, human p85α, coexpressed by baculovirus infected Sf21 insect cells and purified using Ni^2+/NTA-agarose, was used (Millipore product #14-603). […]
The reaction was stopped by the addition of 1 μL of an stop solution (containing the biotinylated PIP3 used as a tracer). […] Subsequently the amount of energy transfer complex consisting of a Europium-labeled anti-GST monoclonal antibody, a GST-tagged PH domain, biotinylated PIP3 and Streptavidin-Allophycocyanin (APC) was evaluated by measurement of the resonance energy transfer from the Europium-labeled anti-GST monoclonal antibody to the Streptavidin-Allophycocyanin. Therefore, the fluorescence emissions at 620 nm and 665 nm after excitation at 350 nm were measured using a TR-FRET reader, e.g., a Pherastar (BMG Labtechnologies, Offenburg, Germany) or a Viewlux (Perkin-Elmer). […]

IC50 [nM] | SMILES
> 50 | COc1c(OCC(O)CN2CCOCC2)ccc2c1N=C(NC(=O)c1cccnc1)N1CCN=C21 (stereo not drawn) [Comparative Example 1, N-{8-[2-hydroxy-3-(morpholin-4-yl)propoxy]-7-methoxy-2,3-dihydroimidazo[1,2-c]quinazolin-5-yl}pyridine-3-carboxamide, reference compound]
> 50 | COc1c(OC[C@@H](O)CN2CCOCC2)ccc2c1N=C(NC(=O)c1cccnc1)N1CCN=C21 [Example 3, N-(8-{[(2S)-2-hydroxy-3-(morpholin-4-yl)propyl]oxy}-7-methoxy-2,3-dihydroimidazo[1,2-c]quinazolin-5-yl)pyridine-3-carboxamide]

SMILES | IC50 [nM]
COc1c(OC[C@H](O)CN2CCOCC2)ccc2c1N=C(NC(=O)c1cccnc1)N1CCN=C21 [Example 2, N-(8-{[(2R)-2-hydroxy-3-(morpholin-4-yl)propyl]oxy}-7-methoxy-2,3-dihydroimidazo[1,2-c]quinazolin-5-yl)pyridine-3-carboxamide] | 10 to 50
